# Measured affinities in a library of Ab-14 heavy chain variants

Target: peptide PDVDLGDISGINAS, taken from heptad repeat 2 (HR2) of SARS-CoV-2 spike.

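Phage display of a naive human antibody library on the peptide gave the parent. The variants were designed computationally from a first round of random CDR variants and then made and measured. Their group label is 14H_En_Gen (En: ensemble of fine-tuned language models; Gen: genetic algorithm). AlphaSeq pools MATa yeast showing the antibodies with MATalpha yeast showing the peptide. Pairs that bind mate more often; barcode pairs of the diploids are counted by sequencing. A regression on co-assayed BCL2-family reference pairs converts the normalised counts of each replicate to an apparent Kd. Mating was done six times.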

Parent: Ab-14, a human scFv built as VH, a (GGGGS)3 linker, VL. Only the CDRs of the heavy chain vary.
VH: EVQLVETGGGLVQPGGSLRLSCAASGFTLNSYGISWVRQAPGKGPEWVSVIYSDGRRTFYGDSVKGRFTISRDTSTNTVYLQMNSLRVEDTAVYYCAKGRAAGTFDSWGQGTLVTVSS
VL: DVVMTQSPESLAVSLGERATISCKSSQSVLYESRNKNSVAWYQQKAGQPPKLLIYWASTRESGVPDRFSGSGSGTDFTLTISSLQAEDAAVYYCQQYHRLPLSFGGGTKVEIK

Variants are written as CDR1, CDR2 and CDR3 of the heavy chain (limits as in the source). Parent: GFTLNSYGIS, VIYSDGRRTFYGDSVK, GRAAGTFDS. Numbers give log10(Kd / nM), so 0 is 1 nM and 3 is 1 µM. Smaller is tighter. A pair that was not seen in that replicate is written "n.d."; this usually means weak binding, but a binder can also be missed.

CDR-H1,CDR-H2,CDR-H3,"log10 Kd, replicates",signal with controls
GFDLNEYGIS,VIYADGSRKAYADDVK,GENAGTFDV,0.13 / -0.16 / -0.36 / -0.30 / -0.09 / 0.24,0 of 18
GFDLDEYGIS,VIYADGRRTAYADSVK,GNVAGTFDM,-0.49 / -0.44 / -0.57 / -0.55 / -0.68 / -0.39,1 of 18 (4.08)
GFDLNEYGIS,VIYADGQRTYYADSVK,GNVAGTFDI,0.35 / -0.06 / -0.23 / -0.70 / -0.58 / 0.90,0 of 18
GFDLEDYGIS,VIYADGMRTAYADSVK,GNVAGTFDT,0.14 / 0.04 / -0.29 / -0.60 / -0.80 / -0.21,0 of 18
GFDLNEYGIS,VIYADGKRTAYADSVK,GEVAGTFDA,0.05 / -0.05 / -0.10 / -0.22 / -0.35 / 0.18,1 of 18 (2.71)
GFDLNEYGIS,VIYADGMRKYYADSVK,GNVAGTFDL,0.16 / -0.08 / -0.36 / -0.20 / -0.20 / 0.05,2 of 18 (3.33)
GFDLNEYGIS,VIYADGMRTQYADSVK,GNNAGTFDI,0.16 / 0.34 / -0.42 / 0.34 / -0.72 / 0.25,0 of 18
GFDLDEYGIS,VIYADGMRTAYADDVK,GNTAGTFDI,0.43 / -0.16 / -0.23 / 0.15 / 0.05 / -0.36,0 of 18
GFDLNEYGIS,VIYADGVRTAYVDSVK,GTNAGTFDV,0.42 / -0.60 / -0.80 / -0.71 / -0.74 / -0.50,0 of 18
GFDLNEYGIS,VIYADGMRTAYADDVK,GEVAGTFDM,-0.83 / -0.46 / -0.81 / -0.43 / -0.87 / -0.38,0 of 18
GFDLNEYGIS,VIYADGLRTAYTDSVK,GNNAGTFDV,-0.21 / 0.10 / -0.37 / -0.25 / 0.14 / -0.19,0 of 18
GFDLNEYGIS,VIYADGMRTAYVDSVK,GEVAGTFDT,0.37 / 0.34 / 0.10 / -0.04 / 0.42 / 0.29,0 of 18
GFDLDEYGIS,VIYADGMRTAYSDSVK,GEVAGTFDI,-0.39 / 0.08 / -0.44 / -0.90 / -0.77 / 0.39,0 of 18
GFDLDEYGIS,VIYADGMRTAYADSVK,GANAGTFDL,-0.72 / -1.10 / -0.99 / -0.95 / -0.94 / -0.85,0 of 18
GFDLNEYGIS,VIYADGKRTAYSDSVK,GNVAGTFDV,-1.06 / -0.72 / -1.23 / 0.07 / -0.69 / -0.19,0 of 18
GFDLNEYGIS,VIYADGMRSFYADSVK,GNVAGTFDV,0.27 / 0.12 / -0.35 / -0.39 / -0.11 / -0.17,1 of 18 (2.00)
GFDLNEYGIS,VIYADGRRTAYADSVK,GANAGTFDV,-0.59 / -0.72 / -0.77 / -0.86 / -0.71 / -0.46,0 of 18
GFDLDEYGIS,VIYADGQRTAYADSVK,GQNAGTFDV,-0.34 / 0.01 / -0.31 / -0.97 / -0.29 / -0.10,1 of 18 (2.03)
GFDLNEYGIS,VIYADGSRTAYADSVK,GANAGTFDI,-0.31 / -0.68 / -0.48 / -0.98 / -0.23 / -0.68,1 of 18 (2.02)
GFDLNEYGIS,VIYADGKRTAYADTVK,GNVAGTFDV,0.73 / 0.82 / 0.46 / 0.99 / -0.20 / 0.05,0 of 18
GFDLNEYGIS,VIYADGKRTAYADSVK,GENAGTFDQ,-0.03 / -0.11 / -0.28 / -0.28 / -0.14 / -0.21,0 of 18
GFDLNEYGIS,VIYADGVRTAYQDSVK,GNVAGTFDI,-0.16 / 0.03 / -0.61 / -1.02 / 0.10 / 0.45,0 of 18
GFDLNEYGIS,VIYADGQRTYYADSVK,GEVAGTFDV,0.86 / 0.37 / -0.06 / -0.24 / 0.47 / 0.58,0 of 18
GFDLNEYGIS,VIYADGMRTAYAESVK,GNQAGTFDV,-0.36 / -1.62 / -0.92 / -0.85 / -0.42 / -0.90,0 of 18
GFDLDEYGIS,VIYADGKRTAYADSVK,GNTAGTFDT,-0.29 / 0.26 / -0.10 / -0.80 / -0.73 / -0.43,0 of 18
GFDLNEYGIS,VIYADGKRTVYADSVK,GNNAGTFDV,-0.07 / 0.24 / -0.39 / -0.24 / -0.27 / 0.29,0 of 18
GFDLNEYGIS,VIYADGKRTAYANSVK,GEVAGTFDQ,-0.17 / -0.55 / -0.67 / -0.74 / -0.44 / -0.14,0 of 18
GFDLNEYGIS,VIYADGMRTAYSDSVK,GQNAGTFDM,n.d. / n.d. / n.d. / n.d. / n.d. / n.d.,0 of 18
GFDLDEYGIS,VIYADGKRTVYADSVK,GEVAGTFDV,0.25 / -0.55 / -0.40 / 0.01 / -0.58 / -0.04,0 of 18
GFDLDEYGIS,VIYADGIRTAYADSVK,GNNAGTFDV,-0.12 / -0.06 / -0.34 / -0.55 / -0.22 / -0.25,1 of 18 (1.63)
GFDLNEYGIS,VIYADGSRTAYADSVK,GGNAGTFDV,0.30 / 0.05 / 0.19 / 0.06 / -0.04 / 0.42,0 of 18
GFDLDEYGIS,VIYADGMRTSYADSVK,GNVAGTFDV,-0.81 / -0.97 / -1.36 / -1.42 / -0.86 / -0.56,0 of 18
GFNLDEYGIS,VIYADGMRTAYADSVK,GEVAGTFDI,0.70 / 2.03 / 0.61 / 0.66 / 0.29 / 0.84,0 of 18
GFDLNEYGIS,VIYADGMRTYYADSVK,GTNAGTFDL,-0.41 / -0.05 / -0.50 / -1.20 / -0.85 / -0.10,0 of 18
GFDLNEYGIS,VIYADGMRTYYADDVK,GENAGTFDV,-0.08 / -0.28 / -0.63 / -0.50 / -0.40 / 0.10,0 of 18
GFDLEEYGIS,VIYADGMRTAYADSVK,GNQAGTFDV,-0.32 / -0.46 / -0.28 / -0.17 / -0.40 / -0.15,0 of 18
GFDLDEYGIS,VIYADGVRTAYTDSVK,GNNAGTFDV,-0.16 / -0.47 / -0.07 / -0.43 / 0.24 / -0.07,0 of 18
GFDLNEYGIS,VIYADGMRTAYTDNVK,GEVAGTFDV,-0.07 / -0.24 / -0.29 / -0.36 / -0.20 / -0.11,0 of 18
GFDLNEYGIS,VIYADGMRTAYADKVK,GQVAGTFDV,-0.94 / -1.22 / -1.08 / -0.98 / -1.30 / -0.93,0 of 18
GFDLNEYGIS,VIYADGKRTAYADSVK,GEIAGTFDV,-0.67 / -0.80 / -1.25 / -0.71 / -0.99 / -0.22,0 of 18
GFDLNEYGIS,VIYADGVRTAYADDVK,GQNAGTFDI,0.11 / -0.65 / -0.50 / -0.72 / -0.55 / -0.41,0 of 18
GFDLNEYGIS,VIYADGMRTAYADDVK,GGNAGTFDQ,-0.40 / -0.17 / -0.43 / -0.79 / -0.69 / 0.15,1 of 18 (1.62)
GFDLNEYGIS,VIYADGVRTAYSDSVK,GNVAGTFDA,-0.17 / -0.10 / -0.18 / -0.26 / -0.42 / -0.15,1 of 18 (1.50)
GFDLNEYGIS,VIYADGMRTVYADSVK,GNEAGTFDI,-0.18 / 0.40 / -0.61 / -0.52 / -0.38 / -0.36,0 of 18
GFDLNEYGIS,VIYADGMRTAYADNVK,GGVAGTFDV,-0.24 / -0.53 / -0.40 / -1.18 / -0.75 / -0.74,0 of 18
GFDLNEYGIS,VIYADGQRKAYADSVK,GNQAGTFDV,-0.70 / -0.86 / -0.72 / -0.79 / -0.69 / -0.53,0 of 18
GFDLNEYGIS,VIYADGMRTFYADDVK,GEVAGTFDT,-0.36 / -0.56 / -0.76 / -0.87 / -0.86 / -0.31,1 of 18 (1.43)
GFDLNEYGIS,VIYADGMRTAYADKVK,GNQAGTFDM,-0.52 / -0.95 / -0.80 / -0.93 / -0.79 / -0.65,0 of 18

Background: pairings of all heavy chain designs with three empty control strains gave a value in 1% of cases (median 2.08, 5th percentile 0.84). Values in that range, when seen in few replicates, are hard to tell from nonspecific mating. The control count says in how many pairings with the empty strains this scFv gave a signal, with their mean in brackets. Of ten entries with the parent sequence, four were seen in most replicates (averages 0.34 to 2.37), three in one and three in none, so single entries are noisy. Values of this round are not directly comparable with the first-round values of the same sequences. The authors averaged sequences with at least three values out of six and counted those with two or fewer as poor binders.

The measurements come from Li et al. 2023 (doi:10.1038/s41467-023-39022-2) through the FLAb antibody collection.